Values quoted from earlier work in patent US10829484B2, “Compounds and methods for kinase modulation, and indications therefor” (Plexxikon Inc., priority 2015, dated 2020).

Tested on: FLT3-ITD+ AML
Conditions: relapsed or chemotherapy-refractory FLT3-ITD+ AML patients, monotherapy; cited from earlier work

CC(C)(C)c1cc(NC(=O)Nc2ccc(-c3cn4c(n3)sc3cc(OCCN5CCOCC5)ccc34)cc2)no1 [quizartinib]
composite complete remission (CRc) rate: about 50%
